{
  "source": "patent US6573284B1",
  "about": "“Method of treating melanoma” (priority 1996, dated 2003)",
  "system": "human melanoma (C32, G361 and STMl1la) and nonmelanoma derived cell lines (Caki-2 and CHO)",
  "experiment": "Growth inhibition (cytotoxicity), Sulpforhodamine B (SRB) assay",
  "type": "cell-based",
  "details": "read-out: IC50 (concentration necessary to inhibit 50% of growth); all cell lines; SRB assay after four hours exposure",
  "data": [
    {"compound": "Oc1ccc(N(CCCl)CCCl)cc1", "values": [
      {"measurement": "IC50", "value": "1000 to 2000", "unit": "nM"}
    ]}
  ]
}
